Laboratory results reported in the OPERA property sets (Mansouri et al. 2018).

| SMILES | log10 OH rate constant (cm³/molecule/s) |
| --- | --- |
| CC(CO[N+](=O)[O-])O[N+](=O)[O-] (configuration not stated) | < -12.5 |
| CO[N+](=O)[O-] | -12.5 |
